Results published in patent US8741934B2, “Inhibitors of ion channels” (Pfizer Limited, priority 2007, dated 2014).

The chains behind the UniProt entries cited, without tags or fusion partners.
UniProt Q9NY46, whole entry: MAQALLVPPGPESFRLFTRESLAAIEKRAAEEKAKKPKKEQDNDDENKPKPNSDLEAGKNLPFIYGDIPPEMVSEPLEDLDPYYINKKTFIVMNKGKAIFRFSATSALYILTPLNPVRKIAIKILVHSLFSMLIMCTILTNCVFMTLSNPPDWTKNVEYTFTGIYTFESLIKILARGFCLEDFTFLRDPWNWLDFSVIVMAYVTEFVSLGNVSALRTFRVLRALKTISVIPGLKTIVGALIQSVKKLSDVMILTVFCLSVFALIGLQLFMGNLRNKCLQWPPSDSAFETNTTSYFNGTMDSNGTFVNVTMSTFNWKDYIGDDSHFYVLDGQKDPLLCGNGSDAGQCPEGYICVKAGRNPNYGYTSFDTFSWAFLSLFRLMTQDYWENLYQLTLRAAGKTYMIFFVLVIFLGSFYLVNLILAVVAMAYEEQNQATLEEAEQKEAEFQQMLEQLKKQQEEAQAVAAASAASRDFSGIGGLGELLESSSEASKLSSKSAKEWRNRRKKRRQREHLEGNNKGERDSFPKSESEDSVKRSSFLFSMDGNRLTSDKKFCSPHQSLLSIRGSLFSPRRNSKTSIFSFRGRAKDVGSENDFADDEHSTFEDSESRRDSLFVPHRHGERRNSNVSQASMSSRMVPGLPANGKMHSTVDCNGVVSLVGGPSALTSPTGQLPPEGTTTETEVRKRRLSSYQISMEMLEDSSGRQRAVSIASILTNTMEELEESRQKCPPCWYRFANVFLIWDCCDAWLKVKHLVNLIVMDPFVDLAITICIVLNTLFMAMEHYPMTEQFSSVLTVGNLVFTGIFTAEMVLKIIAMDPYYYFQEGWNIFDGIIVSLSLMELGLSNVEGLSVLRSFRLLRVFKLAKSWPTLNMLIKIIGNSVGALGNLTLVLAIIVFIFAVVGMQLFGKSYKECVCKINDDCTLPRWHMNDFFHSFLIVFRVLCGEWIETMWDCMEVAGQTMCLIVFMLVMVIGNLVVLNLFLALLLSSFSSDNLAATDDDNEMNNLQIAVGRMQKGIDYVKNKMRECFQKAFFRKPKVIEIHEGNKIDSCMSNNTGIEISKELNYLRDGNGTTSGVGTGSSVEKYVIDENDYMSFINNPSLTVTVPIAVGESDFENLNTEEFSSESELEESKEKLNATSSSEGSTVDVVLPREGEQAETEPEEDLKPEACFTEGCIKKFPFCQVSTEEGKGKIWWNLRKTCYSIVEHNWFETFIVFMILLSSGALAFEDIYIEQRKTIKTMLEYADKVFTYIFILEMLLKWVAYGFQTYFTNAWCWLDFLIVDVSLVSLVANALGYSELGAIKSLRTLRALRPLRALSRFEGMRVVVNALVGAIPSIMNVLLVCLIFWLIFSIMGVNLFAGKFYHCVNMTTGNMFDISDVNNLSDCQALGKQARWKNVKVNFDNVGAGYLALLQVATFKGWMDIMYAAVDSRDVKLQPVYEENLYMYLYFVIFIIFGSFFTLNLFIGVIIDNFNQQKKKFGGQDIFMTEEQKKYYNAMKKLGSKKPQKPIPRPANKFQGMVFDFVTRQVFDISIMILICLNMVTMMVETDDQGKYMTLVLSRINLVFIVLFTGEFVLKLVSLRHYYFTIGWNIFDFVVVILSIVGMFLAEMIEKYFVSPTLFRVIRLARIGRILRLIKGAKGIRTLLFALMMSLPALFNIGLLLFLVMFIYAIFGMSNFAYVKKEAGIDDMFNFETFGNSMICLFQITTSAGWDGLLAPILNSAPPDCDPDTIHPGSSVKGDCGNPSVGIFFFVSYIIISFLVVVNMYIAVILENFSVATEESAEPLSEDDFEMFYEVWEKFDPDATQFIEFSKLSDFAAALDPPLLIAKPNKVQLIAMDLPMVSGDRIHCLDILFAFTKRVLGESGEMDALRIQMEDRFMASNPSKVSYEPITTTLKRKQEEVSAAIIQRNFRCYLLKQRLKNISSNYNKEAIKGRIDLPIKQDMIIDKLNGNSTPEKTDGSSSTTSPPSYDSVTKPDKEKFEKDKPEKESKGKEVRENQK

Target: hSCN3A sodium channels (Homo sapiens, UniProt Q9NY46)
Test: hSCN3A electrophysiology, whole-cell patch-clamp or PatchXpress 7000, estimated IC-50 (Table B)
Conditions: read-out: SCN3A EIC-50, hSCN3A cells

O=C(NCc1ccc(C(F)(F)F)cc1)c1ccc(S(=O)(=O)Nc2nnc(C(F)(F)F)s2)cc1
IC50: 15.1 µM
